pIC50, pKi: −log10 of the molar value.
Assays:
[1] = target: T1, Metabotropic glutamate receptor 5 (Rattus norvegicus, UniProt P31424); assay: Displacement of [3H]-M-MPEP from mGluR5 in rat cerebrocortical membranes; assay type: cell membranes, Membrane
Procedure, shortened: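 Radioligand [3H]-M-MPEP at 2 nM. Nonspecific binding taken with 10 µM M-MPEP. Displacement run in duplicate or triplicate, with curves of at least six concentrations. IC50 was converted to Ki by Cheng-Prusoff, using Kd from a Scatchard plot.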

The chains behind the UniProt entries cited, without tags or fusion partners.
UniProt P31424, whole entry: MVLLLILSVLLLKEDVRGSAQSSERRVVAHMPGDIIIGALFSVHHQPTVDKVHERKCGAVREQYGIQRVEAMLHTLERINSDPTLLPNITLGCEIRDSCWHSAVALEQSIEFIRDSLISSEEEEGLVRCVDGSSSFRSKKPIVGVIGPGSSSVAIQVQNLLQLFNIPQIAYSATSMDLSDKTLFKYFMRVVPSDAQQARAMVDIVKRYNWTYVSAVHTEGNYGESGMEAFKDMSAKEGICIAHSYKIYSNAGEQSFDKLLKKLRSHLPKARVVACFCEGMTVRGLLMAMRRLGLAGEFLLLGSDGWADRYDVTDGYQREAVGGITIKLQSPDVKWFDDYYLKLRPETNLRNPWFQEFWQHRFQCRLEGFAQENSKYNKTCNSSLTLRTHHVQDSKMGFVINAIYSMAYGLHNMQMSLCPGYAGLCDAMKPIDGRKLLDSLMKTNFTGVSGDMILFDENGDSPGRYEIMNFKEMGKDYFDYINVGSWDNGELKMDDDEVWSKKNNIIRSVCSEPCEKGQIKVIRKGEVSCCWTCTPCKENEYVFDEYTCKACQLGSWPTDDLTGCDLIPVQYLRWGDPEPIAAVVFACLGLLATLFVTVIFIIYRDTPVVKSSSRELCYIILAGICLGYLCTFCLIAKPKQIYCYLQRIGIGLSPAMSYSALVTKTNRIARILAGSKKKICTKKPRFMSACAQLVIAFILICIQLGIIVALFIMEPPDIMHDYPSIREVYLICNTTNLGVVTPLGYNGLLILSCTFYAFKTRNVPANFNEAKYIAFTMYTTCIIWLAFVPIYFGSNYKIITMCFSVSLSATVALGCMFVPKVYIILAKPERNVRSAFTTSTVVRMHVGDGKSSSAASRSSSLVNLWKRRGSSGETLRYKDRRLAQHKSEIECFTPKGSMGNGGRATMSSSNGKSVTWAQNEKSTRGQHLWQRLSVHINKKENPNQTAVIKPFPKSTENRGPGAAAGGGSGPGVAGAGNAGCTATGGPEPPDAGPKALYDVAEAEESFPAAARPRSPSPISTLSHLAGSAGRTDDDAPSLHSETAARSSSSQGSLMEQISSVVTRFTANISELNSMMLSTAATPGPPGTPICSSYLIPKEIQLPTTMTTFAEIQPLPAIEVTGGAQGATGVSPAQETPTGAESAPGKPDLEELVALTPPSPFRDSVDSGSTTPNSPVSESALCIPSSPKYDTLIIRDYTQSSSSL

[2] = target: T1, Metabotropic glutamate receptor 5; assay: Allosteric modulation of mGluR5 in E17 rat neuronal cultures assessed as inhibition of (S)-3,5-dihydroxyphenylglycine-induced calcium level; assay type: functional
Procedure, shortened: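 Primary neocortical cultures from E17 rat embryos, grown at least 5 days, then loaded with the Ca2+ dye fluo-4/AM. Baseline and agonist-evoked fluorescence signals were recorded on a plate reader fluorometer.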

O=C(c1ccc(Br)o1)N1CCCCC1c1nnn(-c2cccc(Cl)c2)n1 (racemic)
pKi [1]: 7.31 | pIC50 [2]: 6.67
